# Test results reported in patent US6987093B2 (priority 2001, dated 2006).
# Like-named read-outs stand apart in the source and are kept apart here.
# What was measured:
# [1] = system: Haemophilus influenzae 54A1100; experiment: Murine acute infection (peritonitis) model challenged with Haemophilus influenzae; assay type: in vivo, mouse
# [2] = system: Enterococcus faecalis 03A1085; experiment: Murine acute infection (peritonitis) model challenged with Enterococcus faecalis
# [3] = system: Streptococcus pneumoniae 02J1016; experiment: Murine lung (pulmonary/pneumonia) infection model challenged with Streptococcus pneumoniae; assay type: in vivo, mouse
# [4] = system: Streptococcus pyogenes 02C0203; experiment: Murine acute infection (peritonitis) model challenged with Streptococcus pyogenes; assay type: in vivo, mouse; details: P.O. q.d.
# E. faecalis 03A1085 = experiment: MIC determination, E. faecalis; assay type: cell-based; details: Enterococcus faecalis, 03A1085, E. faecalis 03A1085
# Procedure: MIC Determinations. Streptococcus pneumoniae, S. pyogenes, E. faecalis, and H. influenzae MICs were determined using the broth microdilution procedure recommended by the NCCLS. Test trays were incubated at 35C without carbon dioxide. For testing of streptococci, the cation-adjusted Mueller-Hinton broth was supplemented with 2–3% lysed horse blood. For testing H. influenzae, freshly prepared Haemophilus Test Medium broth was used.
# Bacterial Strains. • S. pneumoniae 02J1016, serotype 3, originally isolated from blood culture (strain P 4241) (MLS- and penicillin-susceptible). • S. pyogenes 02C0203, ATCC 12384, group A, type 3 (MLS-susceptible). • E. faecalis 03A1085, vancomycin susceptible clinically derived strain. • H. influenzae 54A1100, (43095 ATCC Fulghum strain) non-serotype B strain originally isolated from otitis media (macrolide and penicillin susceptible). • H. influenzae 54A1218, clinically derived non-serotype B strain (macrolide-susceptible, penicillin-resistant, TEM-1 beta-lactamase).
# [5] = oral QD, murine peritonitis model
# [6] = previously tested, standard dosing paradigm (b.i.d. on day 1), s.c.
SMILES,"PD50 ([1]; s.c., Q.D. [1 day]) [mg/kg/regimen]",Oral PD50 ([2]; Dosing Regimen 1 day),Oral PD50 ([2]; Dosing Regimen 2 days),Oral PD50 ([2]; Dosing Regimen 3 days),PD50 ([2]; Q.D. [2 days]) [mg/kg/regimen],"ED50 Three-Day Therapy [2, 5] [mg/kg/therapy]","ED50 Two-Day Therapy [2, 5] [mg/kg/therapy]","PD50 [2, 6] [mg/kg]","PD50 ([2]; s.c., Q.D. [1 day]) [mg/kg/regimen]","PD50 ([3]; P.O. q.d., 1 day regimen) [mg/kg/regimen]","PD50 ([3]; P.O. q.d., 2 day regimen) [mg/kg/regimen]","PD50 ([3]; P.O. q.d., 3 day regimen) [mg/kg/regimen]",also measured
"CC[C@H]1OC(=O)[C@H](C)[C@@H](O[C@H]2C[C@@](C)(OC)[C@@H](O)[C@H](C)O2)[C@H](C)[C@@H](O[C@@H]2O[C@H](C)C[C@H](N(C)C)[C@H]2O)[C@](C)(O)C[C@@H](C)CN(C)[C@H](C)[C@@H](O)[C@]1(C)O [Azithromycin, 9a-aza-9a-methyl-9-deoxo-9a-homoerythromycin A]",25.3,14.8 (10.2–19.5) mg/kg/day,42.7 (42.2–43.2) mg/kg/day,59.3 (27.5–91.2) mg/kg/day,42.7,44.4,44.5,10.1,14.8,20.4,27.6,49.4,"PD50 ([1]; Q.D. [2 days]): 49.9 mg/kg/regimen; PD50 ([1]; Q.D. [3 days]): 181.6 mg/kg/regimen; PD50 ([2]; Q.D. [3 days]): 59.3 mg/kg/regimen; PD50 ([2]; one dose (Q.D. on day one), s.c.): 14.8 mg/kg"
CC[C@H]1OC(=O)[C@H](C)[C@@H](O[C@H]2C[C@@](C)(OC)[C@@H](O)[C@H](C)O2)[C@H](C)[C@@H](O[C@@H]2O[C@H](C)C[C@H](N(C)C)[C@H]2O)[C@](C)(OC)C[C@@H](C)C(=O)[C@H](C)[C@@H](O)[C@]1(C)O [Clarithromycin],>200,2.2 (0.9–4.2) mg/kg/day,23.7 (5.4–42) mg/kg/day,18.8 (7.2–30.3) mg/kg/day,23.7,23.1,16.6,1.7,2.2,>200,>200,>200,"PD50 ([4]; 1 day regimen): 11.3 mg/kg/regimen; PD50 ([4]; 2 day regimen): 2.2 mg/kg/regimen; PD50 ([4]; 3 day regimen): 3.1 mg/kg/regimen; Mice Surviving/Total ([2]; 0.52 mg/kg/day, Q.D. [3 days]): 3/10; Mice Surviving/Total ([2]; 0.78 mg/kg/day, Q.D. [2 days]): 1/10; Mice Surviving/Total ([2]; 1.56 mg/kg/day, Q.D. [1 day]): 3/10; Mice Surviving/Total ([2]; 2.08 mg/kg/day, Q.D. [3 days]): 1/10; Mice Surviving/Total ([2]; 3.12 mg/kg/day, Q.D. [2 days]): 5/10; Mice Surviving/Total ([2]; 6.25 mg/kg/day, Q.D. [1 day]): 7/10; Mice Surviving/Total ([2]; 8.3 mg/kg/day, Q.D. [3 days]): 8/10; Mice Surviving/Total ([2]; 25 mg/kg/day, Q.D. [1 day]): 10/10; Mice Surviving/Total ([2]; 33.3 mg/kg/day, Q.D. [3 days]): 9/10; Mice Surviving/Total ([2]; 50 mg/kg/day, Q.D. [2 days]): 10/10; Mice Surviving/Total ([2]; 100 mg/kg/day, Q.D. [1 day]): 10/10; Mice Surviving/Total ([2]; […], Q.D. [2 days]): 6/10; ED50 One-Day Therapy [2, 5]: 6.1 mg/kg/therapy; MIC (E. faecalis 03A1085; read-out: MIC): 3.12 µg/mL; MIC (E. faecalis 03A1085; with serum, read-out: MIC w/serum): 3.12 µg/mL; PD50 ([3]; q.d. regimen regardless as to the duration of therapy): > 200 mg/kg/regimen"
